The record followed here is article PMC8331180, “Development of antibacterial compounds that constrain evolutionary pathways to resistance” (eLife, 2021).

Sequences of proteins named here, by UniProt entry; tags and fusion partners are left off. Residues count along the entry.
UniProt D7UY41, 1-163: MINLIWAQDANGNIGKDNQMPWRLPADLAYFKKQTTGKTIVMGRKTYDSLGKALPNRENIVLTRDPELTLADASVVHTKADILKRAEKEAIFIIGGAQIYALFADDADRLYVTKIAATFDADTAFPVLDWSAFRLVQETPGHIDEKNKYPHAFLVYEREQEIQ
UniProt Q9PJC7, 1-159: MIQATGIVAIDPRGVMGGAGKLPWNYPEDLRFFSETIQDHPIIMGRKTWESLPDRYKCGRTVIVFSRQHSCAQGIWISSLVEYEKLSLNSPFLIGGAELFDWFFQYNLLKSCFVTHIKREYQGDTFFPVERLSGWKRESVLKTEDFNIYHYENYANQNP

In general, pKi refers to −log10 of the Ki, conventionally taken in molar units.

pKi: −log10 of the molar value.

In one test the target is L. grayi WT DHFR (Listeria grayi, UniProt D7UY41). In words: biochemical.
In another test the target is C. muridarum WT DHFR (Chlamydia muridarum, UniProt Q9PJC7). The test can be described thus: biochemical.

In the case of `COc1ccc([C@@H]2CC(c3c(O)[nH]c(=O)n(C)c3=O)=NN2)cc1OC` [CD15], the pKi is 5.30 on L. grayi WT DHFR and 4.84 at C. muridarum WT DHFR.
Consider `CCOc1cc(C=C2C(=O)NC(=O)NC2=O)ccc1OCC(=O)O` [CD17], for which the pKi was 4.79 on L. grayi WT DHFR and 4.49 on C. muridarum WT DHFR.
